The record followed here is patent US7883888B2, “Peptides selectively lethal to malignant and transformed mammalian cells” (The Research Foundation —The State University of New York, priority 2000, dated 2011).

Data set [1] concerns human stem cells. In words: differentiation of human stem cells into hematopoietic cell lines in the presence of growth factors. The format is cell-based. An excerpt:
Additionally, the peptide having the amino acid sequence as set forth in SEQ ID NO:3 fused at the carboxy terminal end to the leader peptide set forth in SEQ ID NO:4, has no effect on the ability of human stem cells to differentiate into hematopoietic cell lines in the presence of growth factors. […] See Kanovsky et al., (Oct. 23, 2001) Proc. Nat. Acad. Sci. USA 98(22);12438-12443, the disclosure of which is incorporated by reference herein as if fully set forth.

The subject of data set [2] is TUC-3 cells. Description: TUC-3 transformed pancreatic cancer cells in culture treated with synthetic peptide. The data set is classed as cell-based, rat. Here is the method: When applied to cells grown in culture, synthetic peptides are selectively lethal to malignant or transformed cells, resulting in dose dependent reduction in cell number. The effect is observable generally within two to three and at most 48 hours. A line of rat pancreatic acinar cells (BMRPA.430) grown in culture was transformed with K-ras. […] When BMRPA.430 cells were treated with a synthetic peptide with the primary structure of SEQ ID NO:1 coupled to leader sequence SEQ ID NO:4, at a dosage of 50 μg/ml, the cells were not affected. […] In contrast, the same synthetic peptide at the same dosage had no effect on non-malignant and non-transformed human breast or fibroblast cell lines.
The peptide having the sequence set forth in SEQ ID NO:3 was synthesized by solid phase synthesis with the leader sequence attached to the amino terminal end. This peptide is labeled PNC28′ in Table 2 below. The PNC28′ peptide was incubated with transformed pancreatic cancer (TUC-3) cells at three different concentrations, i.e., 25, 50 and 100 μg/ml. […] In contrast, when the leader sequence was attached to the carboxyl terminal end of the peptide (PNC28 in Table 2), at dosages of 50 and 100 μg/ml. 100% cell death occurred in about 4 days.

For `CSCC[C@H](NC(=O)[C@H](CCCCN)NC(=O)[C@H](Cc1c[nH]c2ccccc12)NC(=O)[C@H](CCCCN)NC(=O)[C@H](CCCCN)NC(=O)[C@H](CC(C)C)NC(=O)[C@H](CC(C)C)NC(=O)[C@H](CCCCN)NC(=O)[C@H](Cc1c[nH]c2ccccc12)NC(=O)[C@H](CC(C)C)NC(=O)[C@H](CC(=O)O)NC(=O)[C@H](CO)NC(=O)[C@H](Cc1ccccc1)NC(=O)[C@@H](NC(=O)[C@@H](N)CCC(=O)O)[C@@H](C)O)C(=O)N[C@@H](CCCNC(=N)N)C(=O)N[C@@H](CCCNC(=N)N)C(=O)N[C@@H](CC(N)=O)C(=O)N[C@@H](CCC(N)=O)C(=O)N[C@@H](Cc1ccccc1)C(=O)N[C@@H](Cc1c[nH]c2ccccc12)C(=O)N[C@H](C(=O)N[C@@H](CCCCN)C(=O)N[C@H](C(=O)N[C@@H](CCC(N)=O)C(=O)N[C@@H](CCCNC(=N)N)C(=O)NCC(=O)O)C(C)C)C(C)C` [PNC 28], in data set [1], the “effect on ability of human stem cells to differentiate into hematopoietic cell lines” value is “no effect”.

As for “PNC 28′: Leader (SEQ ID NO:4) attached to the amino terminal end of ETFSDLWKLL (SEQ ID NO: 3) (KKWKMRRNQFWVKVQRGETFSDLWKLL; penetration leader sequence from antennapedia; amino acid residue 17-26 of human p53 protein)”, the “reversion of TUC-3 cells” value in data set [2] (25 μg/ml, two weeks of incubation) is recorded as “significantly fewer cells were seen to revert”. Further, the “cell death and reversion of TUC-3 cells” value in data set [2] (50 μg/ml, two weeks of incubation) was “The same phenomena were observed”. Besides, the “cell death of TUC-3 cells” value in data set [2] (100 μg/ml (highest dose), two weeks of incubation) is given as “no cell death”. Besides, the “cells forming acini and exhibiting the untransformed morphological phenotype” value in data set [2] (100 μg/ml, two weeks of incubation) was “approximately half of the cells”. Further, the EFFECT result in data set [2] (Table 3, leader is SEQ ID NO:4) was “No cell death”.
